A short description of this data set: Solubility of sulfonated peracids at pH 4. Conditions: pH of 4. The format is physicochemical.

In the case of persulfonated oleic acid, the solubility entry is recorded as “greater than 50%”.
